Data on 108 molecules can be found in PubChem BioAssay AID602281 (The Scripps Research Institute Molecular Screening Center, 2012).

The chains behind the UniProt entries cited, without tags or fusion partners.
UniProt Q00G26, whole entry, looked up: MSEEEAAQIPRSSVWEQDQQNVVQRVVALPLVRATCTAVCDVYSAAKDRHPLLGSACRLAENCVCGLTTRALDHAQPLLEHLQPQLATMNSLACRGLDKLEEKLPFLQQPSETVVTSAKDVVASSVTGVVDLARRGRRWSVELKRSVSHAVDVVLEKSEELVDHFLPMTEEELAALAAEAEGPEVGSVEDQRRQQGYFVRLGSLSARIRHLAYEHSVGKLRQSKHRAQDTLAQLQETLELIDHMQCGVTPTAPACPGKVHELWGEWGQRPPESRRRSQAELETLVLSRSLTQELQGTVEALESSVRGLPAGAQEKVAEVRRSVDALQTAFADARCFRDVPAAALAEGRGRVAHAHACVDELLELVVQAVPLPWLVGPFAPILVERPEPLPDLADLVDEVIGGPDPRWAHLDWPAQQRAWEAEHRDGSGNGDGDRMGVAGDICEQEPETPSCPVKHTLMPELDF
UniProt Q8WTS1, whole entry, looked up: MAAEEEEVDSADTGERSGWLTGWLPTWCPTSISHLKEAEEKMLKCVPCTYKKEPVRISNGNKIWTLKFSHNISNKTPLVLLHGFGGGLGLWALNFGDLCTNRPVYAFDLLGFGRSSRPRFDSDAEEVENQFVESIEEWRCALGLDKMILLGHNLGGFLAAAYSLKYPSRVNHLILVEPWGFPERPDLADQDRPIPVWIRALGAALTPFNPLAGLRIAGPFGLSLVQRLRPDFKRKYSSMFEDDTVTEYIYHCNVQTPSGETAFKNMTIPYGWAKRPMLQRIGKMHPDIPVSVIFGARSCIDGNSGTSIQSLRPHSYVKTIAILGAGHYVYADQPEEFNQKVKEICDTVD

The entries are a selection whose mix differs from that of the whole data set. Activity calls are given as the source filed them.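 Rule for the calls: active = inhibition above the mean inhibition across every tested compound plus 3 SD (cut at about 22% in these data); inactive = the rest.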

The target in this test is Perilipin-5 (Homo sapiens) + 1-acylglycerol-3-phosphate O-acyltransferase ABHD5 (Homo sapiens) (UniProt Q00G26+Q8WTS1). Description: blockers of ABHD5 binding to perilipin-5 – cell lysate, split luciferase complementation, luminescence, primary screen (AID 602281).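 Note: 0% = DMSO only wells and the 100% control is not disclosed.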 The settings on record: Split G. princeps luciferase complementation, 4 h, at 4 µM, hits give high values.
One may read the inhibition as the drop in the measured response relative to a control, in per cent. Consider `O=C(NCC1(N2CCCCC2)CCCCC1)c1ccc(OC(F)F)cc1`, for which the inhibition is inactive: 0.71%.
For `CC(C)(C)n1nnnc1C(c1ccccc1OC(F)(F)F)N1CCC(n2c(=O)[nH]c3ccccc32)CC1` (stereo not drawn) the value was inactive: 2.8%.
Take `CSc1ccc(C(=O)NCC2(N3CCOCC3)CCCCC2)cc1`: the inhibition was inactive: -5.85%.
For the molecule `O=C(NCC1(N2CCCCC2)CCCCC1)c1cccc([N+](=O)[O-])c1`, the inhibition is inactive: 3.47%.
In the case of `O=c1[nH]c2ccccc2n1C1CCN(C(c2ccccc2OC(F)(F)F)c2nnnn2C2CCCC2)CC1` (stereo not drawn), the inhibition was inactive: -6.07%.
Consider `N#CC1(Nc2ccccc2)CCN(CCc2ccccc2)CC1`, for which the inhibition was inactive: 0.54%.
For `CCN1CCC(Nc2ccc(Cl)cc2)CC1` the value was inactive: -4.57%; for `O=C(NCC1(N2CCCCC2)CCCCC1)c1cccc(C(F)(F)F)c1`, inactive: -1.98%; for `COc1ccc(NC2CCN(C(=O)OC(C)(C)C)CC2)cc1`, inactive: 0.78%.
The value for `CC(C)c1ccc(C(=O)NCC2(N3CCOCC3)CCCCC2)cc1` was inactive: -4.85%.
For `CN1CCN(CCOC(=O)C(O)(c2ccccc2)c2ccccc2)CC1` the value was inactive: -3.77%; for `CCCCn1nnnc1C(c1cccc2ccccc12)N1CCC(n2c(=O)[nH]c3ccccc32)CC1` (stereo not drawn), inactive: 10%.
Take `O=C(NCC1(N2CCOCC2)CCCCC1)c1cc(=O)[nH]c2ccccc12`: the inhibition is inactive: 4.09%.
The value for `COc1cc(C(=O)NCC2(N3CCCCC3)CCCCC2)ccc1OC(F)F` was inactive: 3.08%; that for `CN(C)c1cccc(C(=O)NCC2(N3CCCCC3)CCCCC2)c1` was inactive: -10%.
For `COc1ccc(CN(CCCl)CCCl)cc1Cl`, the inhibition was inactive: 3.82%.
The value for `CC(C)c1ccc(NC2CCN(C(=O)OC(C)(C)C)CC2)cc1` was inactive: -3.83%; that for `CCCCn1nnnc1C(c1ccccc1OC(F)(F)F)N1CCC(n2c(=O)[nH]c3ccccc32)CC1` (stereo not drawn) was inactive: -5.08%.
In the case of `CCCCn1nnnc1C(c1ccnc2ccccc12)N1CCC(n2c(=O)[nH]c3ccccc32)CC1` (stereo not drawn), the inhibition is inactive: 4.91%.
With `CCC(c1nnnn1C(C)(C)C)N1CCC(n2c(=O)[nH]c3ccccc32)CC1` (stereo not drawn), the inhibition was inactive: -0.4%.
For `O=C(NCC1(N2CCOCC2)CCCCC1)c1cc(F)c(F)cc1Cl` the value was inactive: 10.3%; for `COc1cc(OC)c(C(=O)NCC2(N(C)C)CCCCC2)cc1OC`, inactive: 3.62%.
In the case of `CN1CCC(Nc2cccc(F)c2)CC1`, the inhibition is inactive: 0.03%.
The value for `O=C(NCC1(N2CCCCC2)CCCCC1)c1cncc(Br)c1` was inactive: -0.32%.
`CCCOc1ccc(C(=O)NCC2(N(C)C)CCCCC2)cc1OC`: the inhibition was inactive: -9.77%.
With `Cc1ccc(C(=O)NCC2(N(C)C)CCCCC2)o1`, the inhibition is inactive: 4.57%.
For `COc1ccc(C(c2nnnn2C2CCCC2)N2CCC(n3c(=O)[nH]c4ccccc43)CC2)cc1` (stereo not drawn) the value was inactive: 3.96%.
For `CCCCn1nnnc1C(CC)N1CCC(n2c(=O)[nH]c3ccccc32)CC1` (stereo not drawn), the inhibition was inactive: 2.82%.
For `O=C(NCC1(N2CCCCC2)CCCCC1)c1cccs1` the value was inactive: 3.9%.
With `CCCCn1nnnc1C(c1cccs1)N1CCC(n2c(=O)[nH]c3ccccc32)CC1` (stereo not drawn), the inhibition is inactive: 10.3%.
For `O=C(NCC1(N2CCCCC2)CCCCC1)c1ccc(=O)[nH]c1` the value was inactive: -7.95%; for `COc1ccc(C(=O)NCC2(N3CCCCC3)CCCCC2)c(OC)c1OC`, inactive: 1.4%; for `CC(C)(C)OC(=O)N1CCC(N(C(=O)c2ccccc2)c2ccc(F)cc2)CC1`, inactive: 1.39%.
For `CCC(c1nnnn1C1CCCC1)N1CCC(n2c(=O)[nH]c3ccccc32)CC1` (stereo not drawn) the value was inactive: 4.81%; for `COc1ccc(C(=O)NCC2(N3CCCCC3)CCCCC2)cc1`, inactive: 1.77%.
As to `Cc1cccc(NC2(C#N)CCN(Cc3ccccc3)CC2)c1`, the inhibition is inactive: -0.36%.
For `CSc1ccccc1C(=O)NCC1(N2CCCCC2)CCCCC1`, the inhibition is inactive: -4.63%.
The value for `O=C(NCC1(N2CCOCC2)CCCCC1)c1cc2ccccc2o1` was inactive: 0.94%; that for `Cc1cc(C)cc(N(C(=O)c2ccccc2)C2CCN(C(=O)OC(C)(C)C)CC2)c1` was inactive: 0.91%.
The value for `O=C(NCC1(N2CCCCC2)CCCCC1)c1ccc(Cl)nc1` was inactive: 3.44%; that for `O=c1[nH]c2ccccc2n1C1CCN(C(c2ccccc2OC(F)(F)F)c2nnnn2C2CCCCC2)CC1` (stereo not drawn) was inactive: 0.81%.
For `CCCCn1nnnc1C(c1ccc(OC)cc1)N1CCC(n2c(=O)[nH]c3ccccc32)CC1` (stereo not drawn) the value was inactive: 0.68%; for `CCOC(=O)N1CCC(Nc2ccc(OC)cc2)CC1`, inactive: -3.51%.
As to `COc1ccc(Cl)cc1C(=O)NCC1(N2CCOCC2)CCCCC1`, the inhibition is inactive: -8.18%.
For `N#CC1(Nc2ccccc2)CCN(Cc2ccccc2)CC1` the value was inactive: 1.29%.
Turning to `O=C(NCC1(N2CCCCC2)CCCCC1)c1ccc(Cl)s1`, the inhibition is inactive: 9.08%.
For `O=c1[nH]c2ccccc2n1C1CCN(C(c2cc3ccccc3o2)c2nnnn2C2CCCCC2)CC1` (stereo not drawn) the value was inactive: 0.99%; for `O=C(OC1CN2CCC1CC2)C1c2ccccc2Oc2ccccc21` (stereo not drawn), inactive: -1.05%.
`CCOc1ccc(C)cc1CN(CCCl)CCCl`: the inhibition was inactive: 3.8%.
Regarding `O=C1CCN(Cc2ccccc2)CC1`, the inhibition is inactive: 6.21%.
For the molecule `CC(C)(C)n1nnnc1C(c1ccccc1)N1CCC(n2c(=O)[nH]c3ccccc32)CC1` (stereo not drawn), the inhibition is inactive: 0.52%.
With `CCOC(=O)N1CCC(Nc2ccc(F)cc2)CC1`, the inhibition is inactive: -3.77%.
The value for `COc1ccc(NC2CCN(CCc3ccccc3)CC2)c(OC)c1` was inactive: 2.06%; that for `CCCCOc1ccc(C(=O)NCC2(N3CCOCC3)CCCCC2)cc1` was inactive: 7.76%.
For `O=P1(N(CCCl)CCCl)SCCCS1` the value was inactive: 3.32%; for `CCCCn1nnnc1C(c1cc2ccccc2o1)N1CCC(n2c(=O)[nH]c3ccccc32)CC1` (stereo not drawn), inactive: 2.53%.
The value for `O=C(NCC1(N2CCCCC2)CCCCC1)c1ccc(F)cc1` was inactive: -10.1%.
`O=c1[nH]c2ccccc2n1C1CCN(C(c2ccccc2)c2nnnn2C2CCCCC2)CC1` (stereo not drawn): the inhibition was inactive: -5.25%.
Turning to `O=c1[nH]c2ccccc2n1C1CCN(C(c2cccc3ccccc23)c2nnnn2C2CCCC2)CC1` (stereo not drawn), the inhibition was inactive: -2.51%.
The value for `CCOC(=O)N1CCC(Nc2cccc(C)c2)CC1` was inactive: -4.97%; that for `COc1cc(C(=O)NCC2(N(C)C)CCCCC2)ccc1OC(F)F` was inactive: -9.42%; that for `COc1cc(OC)cc(C(=O)NCC2(N3CCCCC3)CCCCC2)c1` was inactive: -0.85%.
For `O=c1[nH]c2ccccc2n1C1CCN(C(c2ccnc3ccccc23)c2nnnn2C2CCCCC2)CC1` (stereo not drawn) the value was inactive: -0.11%; for `CCC(c1nnnn1C1CCCCC1)N1CCC(n2c(=O)[nH]c3ccccc32)CC1` (stereo not drawn), inactive: 11.6%; for `COc1cccc(C(c2nnnn2C2CCCCC2)N2CCC(n3c(=O)[nH]c4ccccc43)CC2)c1OC` (stereo not drawn), inactive: 2.83%.
As for `CC(=O)N(c1ccccc1)C1CCNCC1`, the inhibition was inactive: 3.46%.
`Cc1ccc(NC2(C#N)CCN(Cc3ccccc3)CC2)cc1`: the inhibition was inactive: 4.5%.
For `Fc1ccccc1NC1CCN(Cc2ccccc2)CC1` the value was inactive: 4.79%; for `Cc1ccc(C(=O)NCC2(N3CCCCC3)CCCCC2)o1`, inactive: 4.37%.
For `COc1ccc(C(c2nnnn2C2CCCCC2)N2CCC(n3c(=O)[nH]c4ccccc43)CC2)cc1` (stereo not drawn) the value was inactive: -2.56%; for `CCN1CCC(Nc2cccc(F)c2)CC1`, inactive: -2.57%; for `CC(C)(C)n1nnnc1C(c1ccnc2ccccc12)N1CCC(n2c(=O)[nH]c3ccccc32)CC1` (stereo not drawn), inactive: 13.3%.
The value for `Cc1ccccc1NC1(C#N)CCN(Cc2ccccc2)CC1` was inactive: -4.35%; that for `CN(C)c1ccc(C(=O)NCC2(N3CCCCC3)CCCCC2)cc1` was inactive: 3.13%.
Take `Cn1c(=O)[nH]cc(N(CCCl)CCCl)c1=O`: the inhibition is inactive: -20.6%.
For `O=C(NCC1(N2CCCCC2)CCCCC1)c1ccco1` the value was inactive: 3.33%.
On to `CN1CCC(Nc2ccc(F)c(Cl)c2)CC1`, for which the inhibition is inactive: -4.74%.
Regarding `CCOc1ncccc1C(=O)NCC1(N2CCOCC2)CCCCC1`, the inhibition was inactive: 2.26%.
For `O=c1[nH]c2ccccc2n1C1CCN(C(c2cc3ccccc3o2)c2nnnn2C2CCCC2)CC1` (stereo not drawn) the value was inactive: 0.82%.
For `CCCOc1ccc(C(=O)NCC2(N(C)C)CCCCC2)cc1` the value was inactive: -1.51%; for `NN(c1ccccc1)C1CCN(CCc2ccccc2)CC1`, inactive: -12.4%; for `O=C(O)C1(Nc2ccccc2)CCN(Cc2ccccc2)CC1`, inactive: 0.05%.
The value for `CC(C)(C)OC(=O)N1CCC(Nc2ccccc2)CC1` was inactive: 0.95%; that for `CCC(CO)(C(=O)OC1CN2CCC1CC2)c1ccccc1` (stereo not drawn) was inactive: 3.99%.
As to `COc1cccc(C(=O)N(c2cc(C)cc(C)c2)C2CCN(C(=O)OC(C)(C)C)CC2)c1`, the inhibition was inactive: -7.89%.
As for `COc1cccc(C(c2nnnn2C2CCCC2)N2CCC(n3c(=O)[nH]c4ccccc43)CC2)c1OC` (stereo not drawn), the inhibition was inactive: 5.37%.
Take `COc1cc(OC)cc(C(=O)NCC2(N3CCOCC3)CCCCC2)c1`: the inhibition was inactive: 4.94%.
Turning to `CN1CCC(Nc2ccc(Cl)cc2)CC1`, the inhibition is inactive: 4.23%.
For `O=C(NCC1(N2CCOCC2)CCCCC1)c1cc(Br)ccc1Cl` the value was inactive: 0.36%; for `COc1cc(C(=O)NCC2(N3CCOCC3)CCCCC2)cc(OC)c1C`, inactive: -8.28%.
Regarding `CCCCn1nnnc1C(c1ccccc1)N1CCC(n2c(=O)[nH]c3ccccc32)CC1` (stereo not drawn), the inhibition was inactive: 7.93%.
The value for `O=c1[nH]c2ccccc2n1C1CCN(C(c2ccnc3ccccc23)c2nnnn2C2CCCC2)CC1` (stereo not drawn) was inactive: 0.57%; that for `COc1ccc(C(=O)NCC2(N3CCOCC3)CCCCC2)cc1OC` was inactive: 9.25%.
Regarding `O=c1[nH]c2ccccc2n1C1CCN(C(c2cccs2)c2nnnn2C2CCCCC2)CC1` (stereo not drawn), the inhibition was inactive: -1.89%.
The value for `N/C(=N\O)c1c(N)no[n+]1[O-]` was inactive: 2.04%; that for `CCOC(=O)N1CCC(Nc2ccc(C)cc2)CC1` was inactive: 0.51%; that for `COc1cccc(C(c2nnnn2C(C)(C)C)N2CCC(n3c(=O)[nH]c4ccccc43)CC2)c1OC` (stereo not drawn) was inactive: 8.8%.
With `CCCCn1nnnc1C(c1cccc(OC)c1OC)N1CCC(n2c(=O)[nH]c3ccccc32)CC1` (stereo not drawn), the inhibition is inactive: 2.61%.
For `O=c1[nH]c2ccccc2n1C1CCN(C(c2cccs2)c2nnnn2C2CCCC2)CC1` (stereo not drawn) the value was inactive: 10.4%; for `O=C(OC1CN2CCC1CC2)C1c2ccccc2C=Cc2ccccc21` (stereo not drawn), inactive: 1.45%; for `CC(C)(C)OC(=O)N1CCC(N(C(=O)c2ccccc2)c2ccc(Cl)cc2)CC1`, inactive: -8.79%.
Turning to `N#Cc1ccc(C(=O)NCC2(N3CCCCC3)CCCCC2)cc1`, the inhibition was inactive: 5.39%.
Consider `CCCN1CCC(Nc2cc(OC)cc(OC)c2)CC1`, for which the inhibition was inactive: 0.61%.
For `O=c1[nH]c2ccccc2n1C1CCN(C(c2ccccc2)c2nnnn2C2CCCC2)CC1` (stereo not drawn) the value was inactive: 3.14%; for `Cc1cc(N(CCCl)CCCl)ccc1C=O`, inactive: -4.81%.
For the molecule `c1ccc(CN2CCC(Nc3ccccc3)CC2)cc1`, the inhibition was inactive: 0.33%.
For `CN(C)C1(CNC(=O)c2cccc(C#N)c2)CCCCC1` the value was inactive: 6.25%.
The value for `CC(C)(C)n1nnnc1C(c1cccc2ccccc12)N1CCC(n2c(=O)[nH]c3ccccc32)CC1` (stereo not drawn) was inactive: 3.6%.
